Legend:
Homo sapiens [1] = species: Homo sapiens; test: Selectivity ratio of IC50 for full length human […]/human N-terminal GST-tagged CyclinE1 (1 to 410 residues) expressed in baculovirus expression system to IC50 for recombinant human full length Cdc7 (1 to 574 residues)/human N-terminal GST-tagged ASK (1 to 674 residues) expressed in baculovirus expression system
Homo sapiens [2] = species: Homo sapiens; test: Selectivity ratio of IC50 for recombinant human N-terminal GST-tagged ROCK1 catalytic domain (1 to 477 residues) expressed in baculovirus expression system to IC50 for recombinant human full length Cdc7 (1 to 574 residues)/human N-terminal GST-tagged ASK (1 to 674 residues) expressed in baculovirus expression system

Row | Ratio IC50 (Homo sapiens [1]) | Ratio IC50 (Homo sapiens [2]) | Compound
1 | 14000 | 200 | Cc1n[nH]cc1-c1cc2nc(CN3CCCC3)[nH]c(=O)c2s1
2 | 2200 | 180 | O=c1[nH]c(CN2CCCC2)nc2cc(-c3cn[nH]c3)sc12
3 | 830 | 15 | O=c1[nH]c(CN2CCCC2)nc2cc(-c3ccncc3)sc12

Reference: ChEMBL document CHEMBL4033719, “2-Aminomethylthieno[3,2-d]pyrimidin-4(3H)-ones bearing 3-methylpyrazole hinge binding moiety: Highly potent, selective, and time-dependent inhibitors of Cdc7 kinase” (Bioorg Med Chem, 2017)
